# Reference: PubChem BioAssay AID720553 (National Center for Advancing Translational Sciences (NCATS), 2013)
# The list shows a part of the results, in another mix than the full data. Active and inactive are the calls of the source.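 How the source made its calls: active means maximum activity change below -70%; inconclusive means maximum activity change from -70% to -50%; inactive means maximum activity change above -50%.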
# Tested on: Potassium voltage-gated channel subfamily H member 2, brain isoform KCNH2 3.1 (human)
# Assay: qHTS for Inhibitors of KCHN2 3.1: Mutant qHTS
# Conditions: U2OS KCNH2 3.1, thallium flux FluxOr; stronger effect = lower value
# Source text: Many antipsychotic drugs that inhibit the neurotransmitter dopamine also bind to hERG1 channel which might help explain their antipsychotic activity but also produces cardiac side effects. The discovery of the novel KCNH2 3.1 isoform offers a potential new target for the development of antipsychotic drugs without cardiac side effects. This proposal will use a high throughput thallium flux assay developed for KCNH2 to screen compounds that modulate the activity of KCNH2 3.1. The wild type KCNH2 channel will also be screened in parallel to help define the selective modulators of this KCNH2 3.1 potassium channel. The resulting compounds will be validated in electrophysiology experiments. The availability of animal models will allow future testing in vivo for effects on memory and other aspects of animal physiology linked with psychosis. NIH Chemical Genomics Center [NCGC] NIH Molecular Libraries Probe Centers Network [MLPCN] MLPCN Grant: MH096539 Assay Submitter (PI): James Barrow, Johns Hopkins University, Lieber Institute for Brain Development
# U2OS cells were resuspended in cell media containing 10% fetal calf serum (FCS) at a concentration of 2 million cells / mL. The solution was treated with the mutant (3.1) virus at 1.77 x 10^8 / mL and allowed to incubate at room temperature in the dark. After 4 hours of incubation, DMEM + 10% fetal bovine serum (FBS) was added to the cell solution. Three microliter was then dispensed into a 1536 tissue culture treated black assay plates which were incubated overnight at 37 C. Two microliter of loading buffer (HBSS + HEPES + Red40 dye quencher + FluxOr dye) was added and the assay plates were incubated for 45 min at room temperature in the dark. Twenty-three nanoliter of test compounds and positive control Haloperidol (46 uM final concentration) were added to the assay plate followed by a kinetic read (180 sec) using the Hamamatsu FDSS reader. A stimulation buffer was added to the plate and the second kinetic read (2 min) was obtained. The rate constant was calculated from the kinetic reads and normalized to the positive and negative DMSO controls.
# On the % scale 0 is the no-effect control and ±100 the full control effect.
row,SMILES,activity change
1,CCNC(=O)N1CCN(CCCC(c2ccc(F)cc2)c2ccc(F)cc2)CC1,active: -118%
2,CN1CCCC1CCOC(C)(c1ccccc1)c1ccc(Cl)cc1 (configuration not stated),active: -111%
3,O=C(CCCN1CCC(O)(c2ccc(Cl)cc2)CC1)c1ccc(F)cc1,active: -99.9%
4,O=C(CCCN1CCC(O)(c2cccc(C(F)(F)F)c2)CC1)c1ccc(F)cc1,active: -111%
5,CN1CCC[C@@H]1CCO[C@](C)(c1ccccc1)c1ccc(Cl)cc1,active: -96.4%
6,CCOC(=O)C1=C[C@]2(CC)CCCN3CCc4c(n1c1ccccc41)[C@@H]32,active: -86.3%
7,CC(C)COCC(CN(Cc1ccccc1)c1ccccc1)N1CCCC1 (configuration not stated),active: -103%
